In ChEMBL document CHEMBL3124778, “Structure-based design of new dihydrofolate reductase antibacterial agents: 7-(benzimidazol-1-yl)-2,4-diaminoquinazolines” (J Med Chem, 2014):

System: Staphylococcus aureus
Test: Antibacterial activity against Staphylococcus aureus ATCC 13709 infected in iv dosed BALB/c mouse septicemia model assessed as protection from lethal infection after 24 hrs
Assay type: functional

**Q.** How did the Activity turn out when Cc1cc2nc(-c3nccs3)n(-c3ccc4c(N)nc(N)nc4c3)c2cc1C was run?
**A.** Dose-dependent effect
